Earlier results as cited in PMC4844575, “The influence of different metal-chelate conjugates of pentixafor on the CXCR4 affinity” (EJNMMI Research, 2016).

Test system: OH1 human small cell lung cancer tumor-bearing mice
Conditions: cited from earlier work

## cyclo(-D-Tyr-N-Me-D-Orn(aminomethylbenzoyl (AMB)-DOTA)-L-Arg-L-2-Nal-Gly-) [[^68Ga]pentixafor]
1 h p.i.
  activity in the blood: 1.08 % ± 0.27
2 h p.i.
  uptake in CXCR4-expressing tissue (tumor): 4.63 % ± 1.54
